For one molecule, Kd results are on record in patent US9353141B2, “Galectoside inhibitors of galectins” (GALECTO BIOTECH AB, priority 2012, dated 2016).

Chains of the proteins cited; added tags and fusions are not shown. Residues count along the entry.
UniProt O00182, 17-148 limits assumed, species assumed: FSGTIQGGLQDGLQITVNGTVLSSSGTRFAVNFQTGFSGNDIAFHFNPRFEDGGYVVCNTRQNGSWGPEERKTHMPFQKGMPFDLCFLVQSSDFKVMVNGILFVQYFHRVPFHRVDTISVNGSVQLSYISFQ
UniProt O00182, 227-355 limits assumed, species assumed: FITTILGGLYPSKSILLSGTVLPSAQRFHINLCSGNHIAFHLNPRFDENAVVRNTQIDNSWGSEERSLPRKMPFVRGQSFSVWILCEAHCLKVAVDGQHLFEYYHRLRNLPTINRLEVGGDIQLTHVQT
UniProt P47929, whole entry, species assumed: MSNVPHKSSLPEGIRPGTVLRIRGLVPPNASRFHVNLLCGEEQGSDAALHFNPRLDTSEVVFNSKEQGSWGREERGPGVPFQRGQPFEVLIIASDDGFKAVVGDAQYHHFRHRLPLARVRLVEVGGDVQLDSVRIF
UniProt P09382, whole entry, species assumed: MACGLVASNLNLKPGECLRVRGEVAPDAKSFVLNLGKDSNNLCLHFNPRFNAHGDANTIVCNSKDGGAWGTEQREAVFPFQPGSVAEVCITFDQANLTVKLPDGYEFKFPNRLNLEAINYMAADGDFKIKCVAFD

Each structure is given as a SMILES string.

For orientation: Kd means the concentration at which binding is half-saturated. Read a low Kd as tighter binding.

Common to all, as to experiment: Fluorescence polarization-based galectin inhibition assay
For orientation: In fluorescence polarisation assays a small probe gives low polarisation when free and higher when bound to something large.

Assay [1] concerns the target galectin-9 (N-terminal domain) (Homo sapiens, UniProt O00182).
The target of assay [2] is galectin-7 (Homo sapiens, UniProt P47929).
In assay [3] the target is galectin-1 (Homo sapiens, UniProt P09382).
The target in assay [4] is galectin-9 (C-terminal domain) (Homo sapiens, UniProt O00182).

For `OC[C@H]1O[C@@H](S[C@@H]2O[C@H](CO)[C@H](O)[C@H](O)[C@H]2O)[C@H](O)[C@@H](O)[C@H]1O` [thiodigalactoside, reference compound], the Kd was found to be 38 µM in assay [1], 160 µM in assay [2], 24 µM in assay [3] and 44 µM in assay [4].
